# Binding of CDR-mutated scFvs to a peptide of the spike HR2 region

The target is the same throughout: PDVDLGDISGINAS, from the HR2 region of SARS-CoV-2 spike.

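Phage display of a naive human antibody library on the peptide gave the parent. The library (AAYL52) carries one to three amino acid substitutions per variant, with no insertions or deletions. The assay is AlphaSeq: two haploid yeast populations carry antibody and antigen on their surface. After mating in shaken culture at 30 °C for 16 h, diploids were selected and their barcode pairs sequenced. A regression on co-assayed BCL2-family reference pairs converts the normalised counts of each replicate to an apparent Kd. Each pool was mated in three replicate cultures.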

Each scFv is VH, a (GGGGS)3 linker, VL, as in the parent Ab-95, and differs from it in the CDRs of the light chain only.
VH: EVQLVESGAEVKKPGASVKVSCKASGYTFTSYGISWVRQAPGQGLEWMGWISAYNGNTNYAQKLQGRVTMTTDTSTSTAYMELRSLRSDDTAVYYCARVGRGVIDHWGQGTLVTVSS
VL: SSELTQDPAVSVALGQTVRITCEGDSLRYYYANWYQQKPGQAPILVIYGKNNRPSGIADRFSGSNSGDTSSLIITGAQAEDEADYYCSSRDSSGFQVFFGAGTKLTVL

Changes read parent residue, position, new residue, counted from the first residue of the VL shown. Numbers give log10(Kd / nM), so 0 is 1 nM and 3 is 1 µM. Smaller is tighter. A mean of the replicates is given; it leaves out those without a signal. "ND" means that the variant was in the library but no mating with the target was seen in that replicate; the authors take this as a sign of poor binding, and no number exists. In this assay the parent's reference entry averaged 2.31; its copy inside this library read 2.25.

With S26K Y30V Y31T the result was 2.20, 3.20, 2.27 (mean 2.56; controls 3 of 9).
With N52E R53G S93M the result was ND, 4.09, 2.74 (mean 3.41; controls 3 of 9).
With N51T S88L S92Y the result was ND, ND, ND (controls 1 of 9).
With R53S F98H the result was 3.49, 2.91, 3.04 (mean 3.14; controls 4 of 9).
With Y30A N51H N52T the result was 1.64, 1.59, 0.97 (mean 1.40; controls 2 of 9).
With S92C Q96M V97Y the result was 4.94, 3.59, 2.77 (mean 3.77; controls 4 of 9).
With Y30G N51Q S92I the result was 0.88, 0.86, 0.21 (mean 0.65; controls 5 of 9).
With N52V D91Y G94A the result was ND, 3.64, ND (controls 1 of 9).
With Y31Q R90L V97L the result was 2.67, 2.60, 2.11 (mean 2.46; controls 4 of 9).
With G24F N33Y N52Y the result was 3.35, 2.88, 3.81 (mean 3.35; controls 3 of 9).
With N51D S89N F95N the result was 2.61, 2.26, 2.32 (mean 2.40; controls 2 of 9).
With S88W S89Y R90N the result was 2.78, 2.23, 2.33 (mean 2.45; controls 2 of 9).
With G94N F98G the result was ND, ND, ND (controls 1 of 9).
With Y31W S92D the result was 4.57, 4.09, ND (mean 4.33; controls 1 of 9).
With G24W L27E N52M the result was 2.31, 2.81, 2.36 (mean 2.49; controls 2 of 9).
With N33M N51W F95R the result was 3.67, ND, ND (controls 3 of 9).
With S26D D91Q the result was 3.11, 4.75, 2.86 (mean 3.58; controls 2 of 9).
With R53Q S55W R90H the result was 5.62, ND, ND (controls 3 of 9).
With N52G S88G D91R the result was 3.56, 3.31, 3.65 (mean 3.51; controls 5 of 9).
With A32C S89L F95D the result was 4.74, 5.25, ND (mean 5.00; controls 3 of 9).
With A32W R53S S55Q the result was 4.10, 3.10, ND (mean 3.60; controls 0 of 9).
With D25G Y29T Y30R the result was 1.59, 1.80, 1.09 (mean 1.49; controls 4 of 9).
With S26K D91S the result was 4.14, ND, ND (controls 3 of 9).
With Y30H Y31K K50S the result was 1.43, 1.29, 0.77 (mean 1.16; controls 3 of 9).
With D25R S93A G94M the result was 3.58, ND, ND (controls 2 of 9).
With P54M S92C V97G the result was ND, ND, 3.44 (controls 3 of 9).
With S26N Y29W Y30V the result was 2.10, 1.70, 2.02 (mean 1.94; controls 1 of 9).
With S88K Q96D F98K the result was 3.48, 4.81, 4.13 (mean 4.14; controls 4 of 9).
With S26E L27P V97C the result was ND, ND, ND (controls 2 of 9).
With Y30V N33V K50P the result was 5.36, 4.18, 4.46 (mean 4.67; controls 4 of 9).
With S88V S89V D91Y the result was 3.07, ND, ND (controls 2 of 9).
With E23T S55I the result was 2.43, 2.21, 2.13 (mean 2.26; controls 4 of 9).
With P54T S92C the result was ND, ND, 3.65 (controls 2 of 9).
With R28W G49E F98S the result was 3.59, 4.78, 2.87 (mean 3.75; controls 3 of 9).
With Y31K Q96D V97K the result was 2.96, ND, 1.81 (mean 2.38; controls 0 of 9).
With E23R P54L S88T the result was 3.77, 2.59, 2.92 (mean 3.10; controls 5 of 9).
With A32I N52G S88D the result was ND, ND, 4.25 (controls 5 of 9).
With A32R N51S F95E the result was 3.93, 3.49, 4.16 (mean 3.86; controls 4 of 9).
With P54D S55F S93G the result was 5.21, 3.95, 3.85 (mean 4.34; controls 1 of 9).
With Y29C G94R the result was 4.92, ND, 4.03 (mean 4.48; controls 4 of 9).
With D25H N52R V97G the result was 5.36, ND, 3.79 (mean 4.58; controls 1 of 9).

Repeated from above, the 6 best binders with a signal in all replicates:

changes,"log10 Kd, replicates","mean, log10 nM",signal with controls
Y30G N51Q S92I,"0.88, 0.86, 0.21",0.65,5/9
Y30H Y31K K50S,"1.43, 1.29, 0.77",1.16,3/9
Y30A N51H N52T,"1.64, 1.59, 0.97",1.40,2/9
D25G Y29T Y30R,"1.59, 1.80, 1.09",1.49,4/9
S26N Y29W Y30V,"2.10, 1.70, 2.02",1.94,1/9
E23T S55I,"2.43, 2.21, 2.13",2.26,4/9

Background: pairings of library AAYL52 with three empty control strains gave a value in 28% of cases (median 3.91, 5th percentile 2.90). Values in that range, when seen in few replicates, are hard to tell from nonspecific mating. The control count says in how many pairings with the empty strains this scFv gave a signal.

From the AlphaSeq antibody data of Engelhart et al. 2022 (doi:10.1038/s41597-022-01779-4), copy in the FLAb collection.